{"source": "ChEMBL document CHEMBL5376007", "about": "“Discovery of Novel PD-L1 Inhibitors That Induce the Dimerization, Internalization, and Degradation of PD-L1 Based on the Fragment Coupling Strategy” (J Med Chem, 2023)", "system": "MDA-MB-231", "experiment": "Antitumor activity against human MDA-MB-231 cells cocultured with CD3/CD28/CD2 T cell activator stimulated human PBMC cells assessed as increase in tumor cell viability incubated for 12 hrs by LDH assay", "type": "functional, cell-based"}
{"compound": "COc1nc(O[C@H]2CCc3c(-c4cccc(C(=O)Nc5ccc(CNC[C@@H]6CCC(=O)N6)cn5)c4Cl)cccc32)c(Cl)cc1CNC[C@@H]1CCC(=O)N1", "values": [{"measurement": "Activity", "value": "Dose-Dependent Effect"}]}
